One compound from ChEMBL document CHEMBL1131282, “Azepinoindole derivatives with high affinity for brain dopamine and serotonin receptors” (Bioorg Med Chem Lett, 1998) can be followed below.

By UniProt entry, the sequences of proteins in these tests, tags left out.
UniProt P18901, whole entry: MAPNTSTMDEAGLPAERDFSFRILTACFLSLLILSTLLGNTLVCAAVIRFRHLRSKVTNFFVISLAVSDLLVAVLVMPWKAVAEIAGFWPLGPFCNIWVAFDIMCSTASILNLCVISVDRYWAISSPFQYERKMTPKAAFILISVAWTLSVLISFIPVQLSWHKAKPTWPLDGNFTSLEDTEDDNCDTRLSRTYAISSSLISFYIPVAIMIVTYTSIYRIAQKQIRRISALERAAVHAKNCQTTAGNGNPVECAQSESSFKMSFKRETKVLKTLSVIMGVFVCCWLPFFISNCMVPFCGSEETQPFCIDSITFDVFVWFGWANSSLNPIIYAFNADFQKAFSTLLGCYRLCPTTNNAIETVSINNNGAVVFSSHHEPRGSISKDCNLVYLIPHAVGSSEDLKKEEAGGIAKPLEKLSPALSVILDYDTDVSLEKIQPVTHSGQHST

The term Ki denotes a measure of affinity in units of concentration, obtained from inhibition or displacement.

The experiment addresses D(1A) dopamine receptor (Rattus norvegicus, UniProt P18901). Description: Affinity for Dopamine receptor D1.

Each structure is given as a SMILES string.

The compound `Cc1nc2n(c(=O)c1CCN1CCC(c3noc4cc(F)ccc34)CC1)CCCC2` [RISPERIDONE] displayed a Ki of 22 nM.
